# Source: patent US20250179215A1, “PLASMIN-BINDING VHHS” (RHEINISCHE FRIEDRICH-WILHELMS-UNIVERSITÄT BONN, priority 2022, published 2025)
# B1: human plasmin (protein)
# chain 1: KVYLSECKTGNGKNYRGTMSKTKNGITCQKWSSTSPHRPRFSPATHPSEGLEENYCRNPDNDPQGPWCYTTDPEKRYDYCDILECEEECMHCSGENYDGKISKTMSGLECQAWDSQSPHAHGYIPSKFPNKNLKKNYCRNPDRELRPWCFTTDPNKRWELCDIPRCTTPPPSSGPTYQCLKGTGENYRGNVAVTVSGHTCQHWSAQTPHTHNRTPENFPCKNLDENYCRNPDGKRAPWCHTTNSQVRWEYCKIPSCDSSPVSTEQLAPTAPPELTPVVQDCYHGDGQSYRGTSSTTTTGKKCQSWSSMTPHRHQKTPENYPNAGLTMNYCRNPDADKGPWCFTTDPSVRWEYCNLKKCSGTEASVVAPPPVVLLPDVETPSEEDCMFGNGKGYRGKRATTVTGTPCQDWAAQEPHRHSIFTPETNPRAGLEKNYCRNPDGDVGGPWCYTTNPRKLYDYCDVPQCAAPSFDCGKPQVEPKKCPGR
# chain 2: VVGGCVAHPHSWPWQVSLRTRFGMHFCGGTLISPEWVLTAAHCLEKSPRPSSYKVILGAHQEVNLEPHVQEIEVSRLFLEPTRKDIALLKLSSPAVITDKVIPACLPSPNYVVADRTECFITGWGETQGTFGAGLLKEAQLPVIENKVCNRYEFLNGRVQSTELCAGHLAGGTDSCQGDSGGPLVCFEKDKYILQGVTSWGLGCARPNKPGVYVRVSRFVTWIEGVMRNN
# How the values were obtained:
# plasmin = plasmin (Homo sapiens, UniProt P00747); assay: cell-based or functional assay
molecule,measurement,setting,value
Aprotinin (BPTI) (from UniProt P00974 36-93),"plasmin-mediated cleavage of FVa, maximal inhibition rate at 10 µM BPTI",plasmin,26%
B1,"Kcat/Km of plasmin-mediated cleavage of fluorogenic peptide substrate, BPTI 3 nM","Aprotinin (BPTI), P00974",8.41e+07 M⁻¹ s⁻¹
same,"Km of plasmin-mediated cleavage of fluorogenic peptide substrate, BPTI 3 nM","Aprotinin (BPTI), P00974",352 µM
same,"kcat of plasmin-mediated cleavage of fluorogenic peptide substrate, BPTI 3 nM","Aprotinin (BPTI), P00974",29600 s⁻¹
